The values that follow are results of earlier work, collected in patent US20200309767A1, “HIGH-THROUGHPUT IMAGING-BASED METHODS FOR PREDICTING CELL-TYPE-SPECIFIC TOXICITY OF XENOBIOTICS WITH DIVERSE CHEMICAL STRUCTURES” (priority 2015, published 2020).

For one data set, the system named is human kidney. The conditions noted are these: known human kidney toxicity flag 1/0; cited from earlier work.
In another data set the test system is liver. Particulars: in vivo; cited from earlier work.

As to `C[C@H]1O[C@H](O[C@H]2[C@H](O)[C@@H](O)[C@@H](O[C@H]3[C@H](O)[C@@H](O)C(O)O[C@@H]3CO)O[C@@H]2CO)[C@H](O)[C@@H](O)[C@@H]1N[C@H]1C=C(CO)[C@@H](O)[C@H](O)[C@H]1O` (stereo partly shown) [Acarbose], in the data set with human kidney, the Nephrotoxic was 0. For the same molecule, the Hepatotoxic in the data set with liver is reported as 1. Turning to `C[C@]12CCC(=O)C=C1CC[C@@H]1[C@@H]2[C@@H](O)C[C@@]2(C)[C@H]1CC[C@]2(O)C(=O)CO` [Hydrocortisone], the Nephrotoxic in the data set on human kidney is 0. Turning to `CC(C)Cc1ccc(C(C)C(=O)O)cc1` (stereo not shown) [Ibuprofen], the Nephrotoxic in the data set on human kidney is recorded as 1.
